From patent US20250275978A1 (Cardiff Oncology, Inc., priority 2024, published 2025)

Tests used:
[1] = tested on: RAS^WT CRC patient-derived xenograft (PDX) models; assay: Example 1: antitumor activity in RAS^WT CRC PDX models, 18 days; type: in vivo, nude mice
Procedure: Twenty RAS^WT CRC PDXs were selected and engrafted in nude mice. […] PDX models were chosen based on their sensitivity to cetuximab, resulting in a selection of 7 cetuximab-sensitive (CetuxS) and 13 cetuximab-resistant (CetuxR) PDXs, including 7 with intrinsic resistance and 6 with acquired-resistance. Tumor volume change from baseline (TVC) was calculated as 100%×(Vt−Vo)/Vo and tumor growth inhibition (TGI) as 100%×(TVCcontrol−TVCtreated)/TVCcontrol. Tumor regression was defined as TVCD18<0 and tumor stasis […].

[2] = tested on: RAS^WT colorectal cancer patient derived xenograft (PDX) models; assay: Example 2: antitumor activity in RAS^WT CRC PDX models, 18-19 days; type: in vivo, mice
Procedure: Tumor volumes (TV) were measured twice a week, and % tumor volume change (TVC) from baseline was calculated as follows: (TVi/TV0−1)×100. Tumor stasis defined as TVC between 0 and 20%, and tumor regression as TVC less than 0% at last measurement. Results are presented as mean±SEM.
Provided in this example are methods for use of PLK1 inhibitor as monotherapy or combination with EGFR inhibitor for treatment of cancer.

[3] = 6 PDXs with acquired resistance to cetuximab

With “cetuximab: monoclonal antibody targeting the epidermal growth factor receptor (EGFR) [reference compound]” the “effect in cetuximab-sensitive (CetuxS) PDXs” value ([1]; 7 CetuxS PDXs, 20 mg/kg BIW, 18 days) was “tumor regression in all the CetuxS PDXs”, the “median TGI (tumor growth inhibition)” value ([1]; cetuximab-resistant models (13), IQR 16-61) was 29% and the “models resistant to cetuximab” value [2, 3] was “Four”. The “models showing partial response” value [2, 3] was “two”, the response of models ([2]; 7 PDXs sensitive to cetuximab) was “all models responded” and the “models in which cetuximab resistance was confirmed” value ([2]; 7 PDXs with intrinsic resistance to cetuximab) was “six of the seven”.
